# Data taken from US20240158355A1, “BET SUBFAMILY INHIBITORS AND METHODS USING SAME” (Baylor College of Medicine, priority 2021, published 2024).
# Target: His-BRDT-BD2 (Homo sapiens (Human), UniProt Q58F21)
# Details: 0 = theoretically present in the library but not detected in the sequencing data
smiles,measurement,value
"CNC(=O)c1ccc(C(=O)Nc2cc(NC(=O)c3ccc4c(c3)c(-c3ccc(N)cc3C)nn4C)ccc2C)cc1 [compound 9, N^1-(5-(3-(4-Amino-2-methylphenyl)-1-methyl-1H-indazole-5-carboxamido)-2-methylphenyl)-N^4-methylterephthalamide]",Count (observed molecule count in the DEC-Tec screen against BRDT-BD2),721
